Assay results taken from patent US7589065.

System: Ala-Leu

**Q.** How did the “rate constant kobs of the cis/trans isomerisation of Ala-Leu with 0 to 8,330 nM Cyp18” value turn out when “peptidyl-prolyl cis/trans isomerase (PPIase) Cyp18” was run?
**A.** The value was “no acceleration of the cis to trans reaction could be observed ... the rate constants kobs established are within a range of about 0.43±0.03 s^-1”.
